Assay results from PMC6182421, “De novo coiled-coil peptides as scaffolds for disrupting protein–protein interactions” (Chemical Science, 2018).

Sequences of proteins named here, by UniProt entry; tags and fusion partners are left off. Residues count along the entry.
UniProt Q07820, 173-327 limits assumed: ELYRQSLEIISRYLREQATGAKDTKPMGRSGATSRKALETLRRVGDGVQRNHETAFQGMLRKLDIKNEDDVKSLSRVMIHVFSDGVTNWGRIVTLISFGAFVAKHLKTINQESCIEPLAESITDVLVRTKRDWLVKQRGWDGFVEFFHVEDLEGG

Biological target: T1, MCL-1/FITC-BID (Homo sapiens, UniProt Q07820)
T1 construct: made in house
Assay: Fluorescence anisotropy competition assay, MCL-1/FITC-BID
Format: binding

## CC[C@H](C)[C@H](NC(=O)[C@H](CCCNC(=N)N)NC(=O)[C@H](CCCNC(=N)N)NC(=O)[C@H](CC(C)C)NC(=O)[C@H](CCC(N)=O)NC(=O)[C@H](C)NC(=O)[C@H](C)NC(C)=O)C(=O)NCC(=O)N[C@@H](CC(=O)O)C(=O)N[C@@H](CCCCN)C(=O)N[C@H](C(=O)N[C@@H](CC(N)=O)C(=O)N[C@@H](CC(C)C)C(=O)N[C@@H](CCCNC(=N)N)C(=O)N[C@@H](CCC(N)=O)C(=O)N[C@@H](CCCCN)C(=O)N[C@@H](CC(C)C)C(=O)N[C@@H](CC(C)C)C(=O)N[C@@H](CC(N)=O)C(N)=O)C(C)C [wt NOXA-B, reference compound]
  IC50: 375 ± 22 nM
